Results taken from patent US20060079453A1, “Hla binding peptides and their uses” (priority 2002, published 2006).
Like-named read-outs stand apart in the source and are kept apart here.

The chains behind the UniProt entries cited, without tags or fusion partners. Residues count along the entry.
UniProt Q30154, 30-266: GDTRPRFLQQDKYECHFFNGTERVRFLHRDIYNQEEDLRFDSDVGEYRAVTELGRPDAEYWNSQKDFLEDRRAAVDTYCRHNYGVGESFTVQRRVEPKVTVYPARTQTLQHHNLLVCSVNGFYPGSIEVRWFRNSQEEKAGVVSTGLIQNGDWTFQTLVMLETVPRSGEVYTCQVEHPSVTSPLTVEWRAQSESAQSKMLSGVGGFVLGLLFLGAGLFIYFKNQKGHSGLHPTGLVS
UniProt P79483, 30-266: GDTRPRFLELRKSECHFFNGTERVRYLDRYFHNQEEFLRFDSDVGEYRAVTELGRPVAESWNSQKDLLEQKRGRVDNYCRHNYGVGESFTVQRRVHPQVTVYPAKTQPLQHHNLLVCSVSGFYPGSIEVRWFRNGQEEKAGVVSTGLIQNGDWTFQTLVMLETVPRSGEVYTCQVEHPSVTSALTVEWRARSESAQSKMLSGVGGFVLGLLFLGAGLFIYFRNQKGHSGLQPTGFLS

Tests used:
Test in all cases: biochemical
Type in all cases: binding
HLA-DR DRB1*0301 (DR3) = HLA-DR DRB1*0301 (DR3) (Homo sapiens, UniProt P01903+P01911, A100K/A102G/A103R/A169T/F55Y/I96L/K41T/L162R/M171V/P40S/Q125H/Q178H/Q39Y/R42S/S66N/T106N/T262R/W38E/Y61H)
HLA-DR DRB1*0401 (DR4) = HLA-DR DRB1*0401 (DR4) (Homo sapiens, UniProt P01903+P01911, A100K/A169T/F76Y/I96L/K127E/L162R/M171V/N62H/P40V/Q125Y/R42H/S133A/S149N/S66Y/V115G/V209L/W38E); settings: DRB1 *0401
HLA-DR DRB1*0405 (DR4) = HLA-DR DRB1*0405 (DR4) (Homo sapiens, UniProt P01903+P01911, A100R/A169T/D86S/F76Y/I96L/K127E/L162R/M171V/N62H/P40V/Q125Y/R42H/S133A/S149N/S66Y/V115G/V209L/W38E); settings: DRB1 *0405
HLA-DR DRB1*0701 (DR7) = HLA-DR DRB1*0701 (DR7) (Homo sapiens, UniProt P01903+P01911, A100R/A102G/A103Q/D57E/D86V/E43K/F76Y/K127E/L162R/M171V/P40G/Q125H/Q99D/R33Q/R42Y/R54Q/S133A/S66F/T210M/V115G/Y107V/Y59L/Y89S); settings: DRB1 *0701
HLA-DR DRB1*0802 (DR8) = HLA-DR DRB1*0802 (DR8) (Homo sapiens, UniProt P01903+P01911, A100R/A103L/A169T/F76Y/H45Y/I96F/K41T/L162R/M171V/P40S/Q125H/Q178H/Q39Y/Q99D/R218S/R42G/S66Y/V115G/W38E)
HLA-DR DRB1*0901 (DR9) = HLA-DR DRB1*0901 (DR9) (Homo sapiens, UniProt P01903+P01911, A100R/A103E/D57H/D86V/F55Y/F60I/F76Y/I96F/K127E/L162R/M171V/P40D/Q125H/Q99R/R33Q/R42F/S133A/S66N/T210M/V115G/W38K/Y107V/Y59G/Y89S); settings: DRB1 *0901
HLA-DR DRB4*0101 (DR53) = HLA-DR DRB4*0101 (DR53) (Homo sapiens, UniProt P01903+P13762, G164S)
HLA-DR DRB5*0101 (DR51) = HLA-DR DRB5*0101 (DR51) (Homo sapiens, UniProt P01903+Q30154)
HLA-DR DRB1*0101 (DR1) = HLA-DR DRB1*0101 (DR1) (Homo sapiens, UniProt P01903+P01911, A100R/D57E/F55L/F60I/F76Y/I96L/L162R/M171V/P40L/Q125E/R42F/V115G/Y59C); settings: DRB1 *0101
HLA-DR DRB1*1302 (DR13) = HLA-DR DRB1*1302 (DR13) (Homo sapiens, UniProt P01903+P01911, A100E/A169T/K41T/L162R/M171V/P40S/Q125H/Q178H/Q39Y/Q99D/R42S/S66N/T262R/V115G/W38E/Y61H)
HLA-DR DRB1*1501 (DR15) = HLA-DR DRB1*1501 (DR15) (Homo sapiens, UniProt P01903+P01911)
HLA-DR DRB3*0101 (DR52) = HLA-DR DRB3*0101 (DR52) (Homo sapiens, UniProt P01903+P79483)
HLA-DR DRB1*1101 (DR11) = HLA-DR DRB1*1101 (DR11) (Homo sapiens, UniProt P01903+P01911, A100R/A169T/A87E/I96F/K41T/L162R/M171V/P40S/Q125H/Q178H/Q39Y/Q99D/R42S/S66Y/T262R/V115G/W38E)

Molecule | IC50 (HLA-DR DRB1*0401 (DR4)) [µM] | IC50 (HLA-DR DRB1*0405 (DR4)) [µM] | IC50 (HLA-DR DRB1*0802 (DR8)) [µM] | IC50 (HLA-DR DRB4*0101 (DR53); DRB4 *0101) [µM] | IC50 (HLA-DR DRB5*0101 (DR51); DRB5 *0101) [µM] | IC50 (HLA-DR DRB1*0101 (DR1)) [µM] | IC50 (HLA-DR DRB1*1302 (DR13); DRBI *1302) [µM] | IC50 (HLA-DR DRB1*1501 (DR15); DRBI *1501) [µM] | IC50 (HLA-DR DRB3*0101 (DR52)) [µM] | IC50 (HLA-DR DRB3*0101 (DR52); read-out: DRB3 *0101) [µM] | other results
CC[C@H](C)[C@H](NC(=O)[C@H](CC(C)C)NC(=O)[C@H](CCCNC(=N)N)NC(=O)[C@@H]1CCCN1C(=O)[C@@H]1CCCN1C(=O)[C@H](C)N)C(=O)N[C@@H](CS)C(=O)N[C@@H](CC(=O)O)C(=O)N[C@@H](CO)C(=O)N[C@@H](CCCNC(=N)N)C(=O)N[C@H](C(=O)N[C@@H](CC(C)C)C(=O)N[C@@H](CCC(=O)O)C(=O)N[C@@H](CCCNC(=N)N)C(=O)N[C@@H](Cc1ccc(O)cc1)C(=O)O)C(C)C | 9.73 | 7.14 | 11.2 | 2.84 | 6.09 |  |  |  |  |  | IC50 (HLA-DR DRB1*0301 (DR3)): 0.0063 µM; IC50 (HLA-DR DRB1*0701 (DR7)): 8.94 µM; IC50 (HLA-DR DRB1*0901 (DR9)): 9.35 µM
CC[C@H](C)[C@H](NC(=O)[C@H](CC(N)=O)NC(=O)[C@H](CCC(=O)O)NC(=O)[C@H](CC(N)=O)NC(=O)[C@H](CC(C)C)NC(=O)[C@H](CO)NC(=O)[C@H](CS)NC(=O)[C@H](Cc1c[nH]cn1)NC(=O)[C@@H](N)CCC(=O)O)C(=O)N[C@H](C(=O)N[C@H](C(=O)N1CCC[C@H]1C(=O)N[C@@H](CC(=O)O)C(=O)N[C@H](C(=O)N[C@@H](CCCCN)C(=O)O)[C@@H](C)O)C(C)C)[C@@H](C)O | 2.29 | 1.2 | 6.19 |  | 6.63 | 9.84 | 0.084 | 12 | 8.31 |  | 
CSCC[C@H](NC(=O)[C@H](CCCNC(=N)N)NC(=O)[C@H](CCCCN)NC(=O)CNC(=O)[C@H](CCCNC(=N)N)NC(=O)[C@@H](NC(=O)[C@H](Cc1ccccc1)NC(=O)[C@H](CC(=O)O)NC(=O)[C@H](CCC(=O)O)NC(=O)[C@H](CCCCN)NC(=O)[C@H](CCC(=O)O)NC(=O)[C@@H](N)CC(C)C)[C@@H](C)O)C(=O)N[C@@H](CO)C(=O)N[C@@H](CO)C(=O)N[C@@H](CC(C)C)C(=O)O |  | 5.69 | 0.804 | 16.1 | 4.9 | 22 | 25.4 | 14.1 | 6.27 |  | IC50 (HLA-DR DRB1*0701 (DR7)): 0.946 µM; IC50 (HLA-DR DRB1*1101 (DR11); DRB1 *1101): 0.698 µM
CC(C)C[C@H](NC(=O)[C@H](C)NC(=O)[C@H](CCC(N)=O)NC(=O)CNC(=O)[C@@H](N)CCCNC(=N)N)C(=O)N[C@@H](CC(C)C)C(=O)N[C@H](C(=O)N[C@@H](CC(N)=O)C(=O)N[C@@H](CO)C(=O)N[C@@H](CO)C(=O)N[C@@H](CCC(N)=O)C(=O)N1CCC[C@H]1C(=O)N[C@@H](Cc1c[nH]c2ccccc12)C(=O)N[C@@H](CCC(=O)O)C(=O)N1CCC[C@H]1C(=O)O)C(C)C | 1.7 | 3.43 |  | 1.55 | 0.558 | 1.12 | 0.0034 | 2.88 | 6.17 |  | IC50 (HLA-DR DRB1*0901 (DR9)): 8.45 µM
CC[C@H](C)[C@H](NC(=O)[C@H](CCC(N)=O)NC(=O)CNC(=O)[C@@H](NC(=O)[C@H](CCCNC(=N)N)NC(=O)[C@@H]1CCCN1C(=O)[C@H](CO)NC(=O)CNC(=O)[C@H](CC(=O)O)NC(=O)[C@H](CCC(=O)O)NC(=O)[C@H](CC(C)C)NC(=O)[C@@H](N)CCCNC(=N)N)[C@@H](C)O)C(=O)N[C@@H](Cc1ccccc1)C(=O)N[C@@H](CCCCN)C(=O)N[C@@H](CCC(N)=O)C(=O)O | 7.91 |  |  |  | 12.6 |  |  | 9.11 | 18.1 |  | IC50 (HLA-DR DRB1*1101 (DR11); DRB1 *1101): 7.9 µM
CC[C@H](C)[C@H](NC(=O)[C@H](CCC(=O)O)NC(=O)[C@H](CCC(=O)O)NC(=O)[C@@H]1CCCN1C(=O)[C@@H](NC(=O)[C@H](CC(=O)O)NC(=O)[C@H](Cc1ccccc1)NC(=O)[C@H](CC(N)=O)NC(=O)[C@@H](N)CCCNC(=N)N)[C@@H](C)CC)C(=O)N[C@@H](CCCCN)C(=O)N[C@@H](CCC(N)=O)C(=O)N[C@@H](CC(C)C)C(=O)N[C@@H](CCC(N)=O)C(=O)N[C@@H](CCC(N)=O)C(=O)N[C@@H](Cc1ccccc1)C(=O)O |  |  |  | 0.311 | 6.85 |  |  | 2.04 | 23.8 |  | 
CC(C)C[C@H](NC(=O)[C@H](C)NC(=O)[C@H](CCC(N)=O)NC(=O)CNC(=O)[C@H](CCCNC(=N)N)NC(=O)[C@H](CC(C)C)NC(=O)[C@@H](NC(=O)[C@H](C)NC(=O)[C@H](CCC(=O)O)NC(=O)[C@@H](N)CO)C(C)C)C(=O)N[C@@H](CC(C)C)C(=O)N[C@H](C(=O)N[C@@H](CC(N)=O)C(=O)N[C@@H](CO)C(=O)N[C@@H](CO)C(=O)O)C(C)C | 2.06 | 17.4 |  | 0.023 |  | 0.011 | 0.0074 | 0.151 | 4 |  | IC50 (HLA-DR DRB1*0701 (DR7)): 1.09 µM; IC50 (HLA-DR DRB1*1101 (DR11); DRB1 *1101): 3.48 µM
CC[C@H](C)[C@H](NC(=O)[C@@H](NC(=O)[C@H](CCC(=O)O)NC(=O)[C@H](CC(N)=O)NC(=O)[C@H](Cc1c[nH]c2ccccc12)NC(=O)CNC(=O)[C@@H](NC(=O)[C@H](CO)NC(=O)[C@H](CO)NC(=O)[C@H](CO)NC(=O)[C@H](CC(=O)O)NC(=O)[C@H](CCC(N)=O)NC(=O)[C@@H](N)CCCNC(=N)N)[C@@H](C)O)[C@@H](C)O)C(=O)N[C@H](C(=O)N[C@@H](CCC(=O)O)C(=O)O)C(C)C [RQDSSSTGWNETIVE] | 4.64 |  | 15.1 | 1.5 | 8.65 |  | 0.848 |  | 9.17 |  | IC50 (HLA-DR DRB1*0901 (DR9)): 9.07 µM
IVSDGNGMNAWVAWRNRC |  |  |  |  |  |  |  |  |  | > 6.25 | IC50 (HLA-DR DRB5*0101 (DR51); read-out: DRB5 *0101): > 2.22 µM
LVNSSQPWEPLQLHV |  |  |  |  |  |  |  |  |  | 18 | IC50 (HLA-DR DRB1*1302 (DR13); read-out: DRBI *1302): 0.504 µM; IC50 (HLA-DR DRB1*1501 (DR15); read-out: DRBI *1501): 2.36 µM; IC50 (HLA-DR DRB4*0101 (DR53); read-out: DRB4 *0101): 3.41 µM; IC50 (HLA-DR DRB5*0101 (DR51); read-out: DRB5 *0101): 10 µM
VDAQGTLSKIFKLGGRDSRS |  |  |  |  |  |  |  |  |  | 0.769 | IC50 (HLA-DR DRB1*1101 (DR11); read-out: DRB1 *1101): 0.018 µM
VLERYLLEAKEAENI |  |  |  |  |  |  |  |  |  | 0.34 | IC50 (HLA-DR DRB1*1302 (DR13); read-out: DRBI *1302): 0.881 µM; IC50 (HLA-DR DRB1*1501 (DR15); read-out: DRBI *1501): 0.269 µM; IC50 (HLA-DR DRB4*0101 (DR53); read-out: DRB4 *0101): 8.92 µM; IC50 (HLA-DR DRB5*0101 (DR51); read-out: DRB5 *0101): 6.71 µM
